Experimental data published in publication PMC12126322, “Characterisation of the thermophilic P450 CYP116B305 identified using metagenomics-derived sequence data from an Australian hot spring” (Applied Microbiology and Biotechnology, 2025).

Experiments:
[1] = system: CYP116B46; details: ref Akter et al. [2024]; cited from earlier work
[2] = system: CYP116B305; assay: In vitro catalytic turnovers and coupling efficiency (GC-MS); type: biochemical, Geminicoccaceae; details: for Coupling (NADH): product formed to NADH consumed; for Coupling (NADPH): product formed to NADPH consumed
Experimental: The reaction mixtures contained CYP116B305 (1 µM) in KPi buffer (50 mM, pH 7.4), catalase (1 µM), substrate (600 µM), and NAD(P)H (1.2 mM). Reactions were conducted at both room temperature (25 °C) and elevated temperature (45 °C) under constant stirring for 1 h. A control reaction, omitting the P450 enzyme, was also performed. Post-incubation, reaction mixtures were acidified to pH 0–2 with HCl (except for 4-methoxyacetophenone assays), followed by extraction with ethyl acetate (3 × 1 mL). The combined organic phases were dried over magnesium sulphate and concentrated to 100 µL under a stream of nitrogen gas. Concentrated samples were derivatised with N,O-bis(trimethylsilyl)trifluoroacetamide (BSTFA-TMS) before being analysed by gas chromatography–mass spectrometry (GC–MS; Zebron ZB-5MS column 30 m × 0.25 mm × 0.25 µm). The method was 50 °C for 5 min followed by increments of 16 °C min^−1 until 250 °C was reached, then held for 5 min.
For coupling efficiency analysis, the NAD(P)H concentration was reduced to 200 µM, and an internal standard (100 µM) was added to the reactions prior to acidification and extraction. […] In the case of 4-methoxyacetophenone, the reactions were stirred for 2 h, and product formation (4-hydroxyacetophenone) was then quantified using a standard curve generated from 4-hydroxyacetophenone (0.05–1 mM) and an internal standard (fluorene; 100 µM).

[3] = target: CYP116B305; assay: Substrate binding by UV-visible difference spectroscopy (KD, heme spin-state shift); design: species or system Geminicoccaceae; details: for Spin-state shift (%): low-spin to high-spin heme shift on substrate binding
[4] = system: CYP116B234; details: ref Kundral et al. [2025]; cited from earlier work
[5] = system: CYP116B305; assay: NAD(P)H consumption assay (cofactor preference, oxidation rates); type: biochemical, Geminicoccaceae; details: for NADH consumption rates / NADPH consumption rates: 33% FMN inclusion, min^−1; for NADH consumption rates (100% FMN rates) / NADPH consumption rates (100% FMN rates): corresponding to full FMN incorporation, approximate maximum
Experimental: The consumption rates were calculated using nonlinear regression (GraphPad Prism), fitting to either the Michaelis–Menten or a quadratic velocity equation to determine the apparent KM and kcat values.

Kd ([3]; difference spectroscopy, CYP116B305 2–4 µM, substrate 0–100 µM): 400 ± 100 nM
Spin-state shift (%) [3]: 84 ± 3%
Spin-state shift (%) ([3]; listed as 2-Hydroxyphenylacetic acid (2-HPA)): 84 ± 3%
Structure (SMILES): O=C(O)Cc1ccccc1O [2-HPA, 2-hydroxyphenylacetic acid]
heme spin-state shift [1]: 25%
Coupling (NADH) ([2]; 25 °C): 31 ± 3%
Coupling (NADPH) ([2]; 25 °C): 60 ± 18%
Coupling (NADH) ([2]; 45 °C): 58 ± 3%
Coupling (NADPH) ([2]; 45 °C): 82 ± 4%
substrate conversion with NADH ([2]; NADH, either temperature (25 °C, 45 °C)): complete conversion of 2-HPA was not achieved
substrate consumption with NADPH ([2]; NADPH in stoichiometric ratio to substrate, both 25 °C and 45 °C): complete consumption
heme spin-state shift [4]: 66%
NADH consumption rates ([5]; 25 °C): 26 ± 2 µM (µM^−1 P450) min^−1
NADPH consumption rates ([5]; 25 °C): 13 ± 1 µM (µM^−1 P450) min^−1
NADH consumption rates (100% FMN rates) ([5]; 25 °C): ~79 µM (µM^−1 P450) min^−1
NADPH consumption rates (100% FMN rates) ([5]; 25 °C): ~39 µM (µM^−1 P450) min^−1
fold increase of NADH oxidation rate ([5]; 45 °C compared to 25 °C): 3.2 fold
fold increase of NADPH oxidation rate ([5]; 45 °C compared to 25 °C): 6.5 fold
NADH consumption rates ([5]; 45 °C): 83 ± 10 µM (µM^−1 P450) min^−1
NADPH consumption rates ([5]; 45 °C): 85 ± 3 µM (µM^−1 P450) min^−1
NADH consumption rates (100% FMN rates) ([5]; 45 °C): ~251 µM (µM^−1 P450) min^−1
NADPH consumption rates (100% FMN rates) ([5]; 45 °C): ~257 µM (µM^−1 P450) min^−1
